Sequences of proteins named here, by UniProt entry; tags and fusion partners are left off. A change or cut given only in a name is not applied to a line headed by its entry.
UniProt P07650: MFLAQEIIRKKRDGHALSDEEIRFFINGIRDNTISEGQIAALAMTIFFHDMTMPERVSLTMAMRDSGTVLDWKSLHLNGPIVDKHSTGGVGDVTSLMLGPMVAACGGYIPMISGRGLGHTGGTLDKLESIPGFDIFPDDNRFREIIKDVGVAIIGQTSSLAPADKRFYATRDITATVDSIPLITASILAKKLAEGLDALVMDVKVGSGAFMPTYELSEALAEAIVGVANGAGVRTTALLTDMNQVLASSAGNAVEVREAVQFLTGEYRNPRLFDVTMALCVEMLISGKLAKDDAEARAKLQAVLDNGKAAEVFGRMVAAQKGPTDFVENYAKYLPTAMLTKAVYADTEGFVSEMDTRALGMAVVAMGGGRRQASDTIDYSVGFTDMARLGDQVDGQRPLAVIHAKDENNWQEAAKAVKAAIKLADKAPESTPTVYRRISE

In ChEMBL document CHEMBL1153453, “Schiff bases of 3-formylchromone as thymidine phosphorylase inhibitors” (Bioorg Med Chem, 2009):

Molecular target: Thymidine phosphorylase (Escherichia coli K-12, UniProt P07650)
Assay: Inhibition of Escherichia coli thymidine phosphorylase
Summary of the method: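 E. coli thymidine phosphorylase, 0.05 or 0.002 U, in potassium phosphate buffer pH 7.4, preincubated with test compound 10 min at 25 °C. A 290 nm pre-read was then taken, substrate added (1.5 mM stock), and absorbance at 290 nm read after 10, 20 and 30 min. Increasing compound concentrations were tested in triplicate. IC50 was calculated from the inhibition data.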

IC50: 39.3 µM
Structure (SMILES): O=c1[nH]c(=O)c2cc[nH]c2[nH]1 [7-DEAZAXANTHINE]
